What all share (assay type): cell-based
Assay [1] deals with alveolar epithelial cells (A549).
In another assay the test system is human lung fibroblasts.
In assay [2] the test system is alveolar epithelial cells.

Take `CCOC(=O)[C@H]1O[C@@H]1C(=O)N[C@@H](CC(C)C)C(=O)NCCC(C)C` [E64D, aloxistatin]: the “release of metalloproteinase-9 (MMP9)” value in assay [1] is on record as “inhibits the release”. Also, in the assay on human lung fibroblasts, the TGF-beta induced proliferation entry is “decreases” and the profibrogenic genes entry is “dose-dependent downregulation of profibrogenic genes”. The “release of IL-8” value in assay [2] is reported as “inhibited the release”.
